Values of other authors, collected in publication PMC9285603, “Flavan‐3‐ol Microbial Metabolites Modulate Proteolysis in Neuronal Cells Reducing Amyloid‐beta (1‐42) Levels” (Molecular Nutrition & Food Research, 2021).

Details: cited from earlier work

5‐(hydroxyphenyl)‐γ‐valerolactone‐sulfate (3ʹ,4ʹ isomer)
ability to reach the brain: able to reach the brain
